The target of the assay is Adrenergic receptor alpha-2 (Rattus norvegicus, UniProt P22086+P19328+P22909). Kind of assay: Displacement of [3H]clonidine from alpha-2 adrenergic receptor in rat brain. The class given is tissue-based. Put shortly: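 Rat brain radioligand displacement binding. IC50 values (μM) were derived by nonlinear regression from four or five concentrations of compound.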
In general terms: In a radioligand displacement assay an active substance lowers the binding of a labelled ligand.

Protein sequences, listed by entry. Tags and fused reporters are not part of them. Lines headed by an entry give the natural chain unless they say otherwise; changes in a name come on top.
UniProt P22086: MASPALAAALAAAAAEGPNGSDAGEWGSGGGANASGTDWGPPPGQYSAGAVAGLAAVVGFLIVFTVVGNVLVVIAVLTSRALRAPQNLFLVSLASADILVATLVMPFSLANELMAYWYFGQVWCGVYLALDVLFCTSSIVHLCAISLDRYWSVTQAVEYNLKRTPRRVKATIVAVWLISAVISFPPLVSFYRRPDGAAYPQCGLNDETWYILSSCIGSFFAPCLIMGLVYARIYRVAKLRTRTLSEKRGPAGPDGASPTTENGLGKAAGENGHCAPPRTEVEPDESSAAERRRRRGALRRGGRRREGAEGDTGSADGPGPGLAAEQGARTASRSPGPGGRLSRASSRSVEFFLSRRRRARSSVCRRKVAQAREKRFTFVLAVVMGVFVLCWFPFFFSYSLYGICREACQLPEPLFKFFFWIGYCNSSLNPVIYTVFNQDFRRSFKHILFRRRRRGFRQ
UniProt P19328: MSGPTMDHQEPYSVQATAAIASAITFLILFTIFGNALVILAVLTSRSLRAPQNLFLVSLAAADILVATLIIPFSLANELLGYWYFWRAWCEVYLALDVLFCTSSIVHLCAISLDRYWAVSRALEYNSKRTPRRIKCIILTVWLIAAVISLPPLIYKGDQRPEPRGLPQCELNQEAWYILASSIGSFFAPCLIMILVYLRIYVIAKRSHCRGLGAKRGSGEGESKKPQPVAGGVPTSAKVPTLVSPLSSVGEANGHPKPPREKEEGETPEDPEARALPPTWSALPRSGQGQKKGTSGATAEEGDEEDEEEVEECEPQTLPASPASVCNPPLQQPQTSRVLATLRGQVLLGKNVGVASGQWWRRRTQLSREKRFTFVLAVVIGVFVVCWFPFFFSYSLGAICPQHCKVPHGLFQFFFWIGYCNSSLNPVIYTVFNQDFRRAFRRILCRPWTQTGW
UniProt P22909: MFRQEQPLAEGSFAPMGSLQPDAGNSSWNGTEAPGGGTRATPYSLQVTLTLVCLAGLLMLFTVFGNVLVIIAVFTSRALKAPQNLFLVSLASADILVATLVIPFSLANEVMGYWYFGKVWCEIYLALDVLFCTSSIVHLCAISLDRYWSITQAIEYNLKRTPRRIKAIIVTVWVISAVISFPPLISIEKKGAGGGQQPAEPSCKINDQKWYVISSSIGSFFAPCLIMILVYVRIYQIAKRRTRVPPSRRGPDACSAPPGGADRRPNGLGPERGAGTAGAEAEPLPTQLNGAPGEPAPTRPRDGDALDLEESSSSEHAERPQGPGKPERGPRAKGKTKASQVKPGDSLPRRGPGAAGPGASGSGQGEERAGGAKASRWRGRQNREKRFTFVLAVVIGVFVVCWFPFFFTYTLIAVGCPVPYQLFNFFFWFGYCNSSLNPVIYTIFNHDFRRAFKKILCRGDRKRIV

Usually IC50 stands for the point on the concentration scale where inhibition reaches its midpoint. `CSc1ccc2c(c1)N(CCC1CCCCN1C)c1ccccc1S2` (stereo unspecified) [THIORIDAZINE] gave an IC50 of 1300 nM.

The record behind these values is ChEMBL document CHEMBL1124042, “Synthesis and potential antipsychotic activity of 1H-imidazo[1,2-c]pyrazolo[3,4-e]pyrimidines” (J Med Chem, 1988).
